Target: T1, Histone H3(1–15)K9bhb peptide (R/S racemic mixture) (UniProt P68431 2-16, β-hydroxybutyryl-lysine (Kbhb) at K9)
T1 construct: histone H3 N-terminal tail, residues 1-15; also called H3K9bhb; Kbhb; source: synthetic peptide (Beijing SciLight Biotechnology, >95% purity)
Assay: ITC; 25 °C, MicroCal PEAQ-ITC; 200 μL of 50 μM protein in the cell titrated with 17 injections of 750 μM peptide; in the absence of NAD+; one set of binding sites model
Settings: both partners purified

B1: SIRT3(118–399) V324M (domain or fragment, human, UniProt Q9NTG7 118-399, looked up)
chain: SDKGKLSLQDVAELIRARACQRVVVMVGAGISTPSGIPDFRSPGSGLYSNLQQYDLPYPEAIFELPFFFHNPKPFFTLAKELYPGNYKPNVTHYFLRLLHDKGLLLRLYTQNIDGLERVSGIPASKLVEAHGTFASATCTVCQRPFPGEDIRADVMADRVPRCPVCTGVVKPDIVFFGEPLPQRFLLHVVDFPMADLLLILGTSLEMEPFASLTEAVRSSVPRLLINRDLVGPLAWHPRSRDVAQLGDVVHGVESLVELLGWTEEMRDLVQRETGKLDGPDK
notes: also called SIRT3_(V324M); V324M mutant; not shown: 10xHIS-SUMO, N-terminal, cleaved
**Q.** With B1 as the binder, how does the Kd read?
**A.** 664 µM

From paper PMC6796883 (Cell Discovery, 2019)
